Values of other authors in article PMC11320581 (ACS Infectious Diseases, 2024).

By UniProt entry, the sequences of proteins in these tests, tags left out. Where a name states a change or a piece, a line headed by the entry shows the natural chain unless it says otherwise.
UniProt P22118, whole entry, stated change not applied: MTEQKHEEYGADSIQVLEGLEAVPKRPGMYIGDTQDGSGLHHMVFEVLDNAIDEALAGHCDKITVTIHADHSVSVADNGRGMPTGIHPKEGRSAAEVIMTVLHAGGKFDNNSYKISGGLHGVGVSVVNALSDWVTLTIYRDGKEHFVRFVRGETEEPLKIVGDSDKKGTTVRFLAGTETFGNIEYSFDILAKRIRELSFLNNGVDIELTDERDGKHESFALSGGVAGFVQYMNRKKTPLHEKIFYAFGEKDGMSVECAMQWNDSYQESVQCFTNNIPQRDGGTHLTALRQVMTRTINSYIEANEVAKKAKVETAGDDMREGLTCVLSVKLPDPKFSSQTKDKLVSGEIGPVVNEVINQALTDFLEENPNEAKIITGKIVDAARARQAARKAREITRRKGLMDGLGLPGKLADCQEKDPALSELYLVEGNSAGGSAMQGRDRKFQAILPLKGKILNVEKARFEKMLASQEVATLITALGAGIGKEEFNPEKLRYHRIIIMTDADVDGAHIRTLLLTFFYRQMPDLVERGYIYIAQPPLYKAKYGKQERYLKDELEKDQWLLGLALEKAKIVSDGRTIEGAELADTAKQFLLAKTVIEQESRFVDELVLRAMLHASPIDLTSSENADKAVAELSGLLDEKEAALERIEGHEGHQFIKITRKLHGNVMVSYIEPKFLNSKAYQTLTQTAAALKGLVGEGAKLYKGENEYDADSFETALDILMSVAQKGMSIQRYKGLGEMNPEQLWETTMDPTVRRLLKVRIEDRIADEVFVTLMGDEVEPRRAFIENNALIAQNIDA
UniProt P48371: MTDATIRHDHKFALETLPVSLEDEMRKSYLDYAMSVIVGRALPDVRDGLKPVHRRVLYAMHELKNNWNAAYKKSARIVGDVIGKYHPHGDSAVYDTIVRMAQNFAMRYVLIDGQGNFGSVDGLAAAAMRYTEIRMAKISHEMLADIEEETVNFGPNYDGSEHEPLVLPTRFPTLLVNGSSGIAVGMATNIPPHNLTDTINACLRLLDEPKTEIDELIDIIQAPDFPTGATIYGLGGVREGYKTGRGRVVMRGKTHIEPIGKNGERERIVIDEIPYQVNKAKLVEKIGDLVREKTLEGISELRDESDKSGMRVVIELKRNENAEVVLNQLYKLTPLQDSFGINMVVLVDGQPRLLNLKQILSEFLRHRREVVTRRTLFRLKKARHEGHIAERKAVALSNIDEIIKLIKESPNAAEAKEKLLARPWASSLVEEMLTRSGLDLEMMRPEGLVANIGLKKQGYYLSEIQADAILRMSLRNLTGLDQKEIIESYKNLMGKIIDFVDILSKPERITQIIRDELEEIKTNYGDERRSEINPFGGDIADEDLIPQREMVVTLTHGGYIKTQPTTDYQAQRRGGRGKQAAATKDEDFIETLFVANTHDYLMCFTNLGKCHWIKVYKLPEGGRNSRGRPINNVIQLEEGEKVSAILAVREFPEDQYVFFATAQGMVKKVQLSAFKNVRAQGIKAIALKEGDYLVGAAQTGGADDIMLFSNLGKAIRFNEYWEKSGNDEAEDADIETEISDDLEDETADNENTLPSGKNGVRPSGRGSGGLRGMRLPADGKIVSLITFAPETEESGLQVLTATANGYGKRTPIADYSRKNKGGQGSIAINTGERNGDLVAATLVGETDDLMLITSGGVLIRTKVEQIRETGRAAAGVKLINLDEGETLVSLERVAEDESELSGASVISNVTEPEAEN

Target: N. gonorrhoeae gyrase GyrA^S91F/D95G (Neisseria gonorrhoeae, UniProt P22118+P48371, D95G/S91F)
Conditions: cited from earlier work

C[C@@H]1CN2c3c(cc4c(N5C(=O)OC[C@@H]5C)noc4c3F)CC3(C(=O)NC(=O)NC3=O)[C@H]2[C@H](C)O1 [zoliflodacin, Zoliflodacin]
effect of the two mutations on potency against DNA supercoiling and cleavage reactions: minimally affected
